Values quoted from earlier work, collected in US9259397B2 (Purdue Pharma L.P., priority 2000, dated 2016).

The chains behind the UniProt entries cited, without tags or fusion partners.
UniProt P35367, whole entry: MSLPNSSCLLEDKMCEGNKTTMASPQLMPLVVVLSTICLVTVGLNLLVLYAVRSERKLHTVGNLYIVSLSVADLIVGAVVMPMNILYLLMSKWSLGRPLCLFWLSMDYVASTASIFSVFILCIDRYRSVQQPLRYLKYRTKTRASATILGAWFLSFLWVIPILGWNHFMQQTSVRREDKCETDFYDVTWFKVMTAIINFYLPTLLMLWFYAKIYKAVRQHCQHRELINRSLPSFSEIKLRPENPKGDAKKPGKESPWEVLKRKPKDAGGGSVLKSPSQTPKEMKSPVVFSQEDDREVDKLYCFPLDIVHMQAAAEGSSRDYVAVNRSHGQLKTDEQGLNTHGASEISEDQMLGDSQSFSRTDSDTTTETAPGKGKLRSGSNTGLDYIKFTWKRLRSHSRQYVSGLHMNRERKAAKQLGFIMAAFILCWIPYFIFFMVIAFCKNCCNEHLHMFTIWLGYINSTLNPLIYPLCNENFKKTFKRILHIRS

Assays:
[1] = loratadine therapy
histamine H1 receptor = histamine H1 receptor (Homo sapiens, UniProt P35367); conditions: in vivo

## ethyl 4-(8-chloro-5,6-dihydro-11H-benzo cyclohepta pyridin-11-ylidene)-1-piperidinecarboxylate [loratadine]
[1]
  most common adverse side effects: headache, somnolence, fatigue, and dry mouth
Histamine H1 receptor
  duration of antihistamine activity: > 24 h
  maximum of antihistamine activity: 8 to 12 h
  onset of antihistamine activity: 1 to 3 h
  tolerance to antihistamine effect: no evidence of tolerance
